# Data reported in US4845121A, “Aci-reductone compounds belonging to the 6,7-disubstituted-3,4-dihydro benzopyan-2H-one class having antiaggregatory properties” (The Ohio State University Research Foundation, priority 1986, dated 1989).
# Experiments:
# [1] = system: human platelets (collagen-induced serotonin secretion); details: Witiak et al., J. Med Chem. 25: 90 (1982); cited from earlier work
# [2] = system: human platelets (ADP-induced aggregation); test: ADP-induced human platelet aggregation (turbidometric, secondary aggregation); type: cell-based
# Method: (§1) The antiaggregatory action of the compounds of the present invention was determined using the following procedure: ADP and AA were obtained from Sigma Chemical Co., (St. Louis, MO). [^14 C]-Serotonin (57 mCi/mmol) and [^3 H]-AA (210 Ci/mmol) were supplied by Amersham (Arlington Heights, IL). U46619 (15S-hydroxy-11α,9α-epoxymethano-prosta-5z,13E-dienoic acid) was purchased from Upjohn Diagnostics (Kalamazoo, MI). Blood was collected from normal human volunteers who reported to be free of medication for at least 10 days prior to blood collection. Washed platelets were prepared and suspended in a modified Tyrode's solution, pH 7.4 as described in Navran, S. S., et al., Thromb. […] The platelet count was adjusted to 3×10^8 /ml for aggregation, secretion and biochemical studies.
# Inhibitors were added one minute prior to induction of platelet activation. Secretion of the contests of platelet dense granules was measured by monitoring the release of radioactivity from platelets prelabeled with [^14 C]-serotonin. […] To study the release of AA from platelet phospholipids, washed platelets were incubated with [^3 H]-AA (3.6 mCi/10^9 platelets) for two hours at room temperature prior to the final centrifugation and resuspension of the washing procedure. Released [^3 H]-AA was quantified from supernatants of stimulated platelet samples in a manner identical to the determination of serotonin secretion.
# [3] = system: human platelets (thrombin-induced [3H]-AA release); test: Thrombin-induced [3H]-arachidonic acid release; type: cell-based
# Method: (§2) The antiaggregatory action of the compounds of the present invention was determined using the following procedure: ADP and AA were obtained from Sigma Chemical Co., (St. Louis, MO). [^14 C]-Serotonin (57 mCi/mmol) and [^3 H]-AA (210 Ci/mmol) were supplied by Amersham (Arlington Heights, IL). U46619 (15S-hydroxy-11α,9α-epoxymethano-prosta-5z,13E-dienoic acid) was purchased from Upjohn Diagnostics (Kalamazoo, MI). Blood was collected from normal human volunteers who reported to be free of medication for at least 10 days prior to blood collection. Washed platelets were prepared and suspended in a modified Tyrode's solution, pH 7.4 as described in Navran, S. S., et al., Thromb. Res., 33: 449-510 (1984). […]
# (§3) Platelet aggregation studies were performed according to the turbidometric method of Born, as described in Nature, 194: 927-929 (1962), in a Payton Model 600 dual channel aggregometer interfaced to an Apple microcomputer for acquistion, quantitation, presentation, and management of platelet aggregation data, as described in Huzoor-Akbar, et al., 32 Thromb. […] Secretion of the contests of platelet dense granules was measured by monitoring the release of radioactivity from platelets prelabeled with [^14 C]-serotonin. Malondialdehyde formation induced by AA was determined as described in Huzoor-Akar et al., Biochem Pharmacol., 30: 2013-2020 (1981). […]
# [4] = system: human platelets (U46619, thromboxane A2 agonist-induced aggregation); test: U46619-induced human platelet aggregation (turbidometric, + ASA); type: cell-based
# Method: as §1
# (§4) Inhibitors were added one minute prior to induction of platelet activation. Secretion of the contests of platelet dense granules was measured by monitoring the release of radioactivity from platelets prelabeled with [^14 C]-serotonin. […] Released [^3 H]-AA was quantified from supernatants of stimulated platelet samples in a manner identical to the determination of serotonin secretion.
# [5] = system: human platelets (arachidonic acid-induced serotonin secretion); test: Arachidonic acid-induced [14C]-serotonin secretion; type: cell-based
# Method: as §1, §4
# [6] = system: human platelets (ADP-induced aggregation); details: literature; cited from earlier work
# [7] = system: human platelets (collagen-induced aggregation); details: literature, cited from earlier work
# [8] = system: human platelets (arachidonic acid-induced aggregation); test: Arachidonic acid-induced human platelet aggregation (turbidometric); type: cell-based; details: inhibitor 1 min before AA (0.2-1 mM), mean ± S.E.M., n = 3-9 donors
# Method: as §1, §4
# [9] = system: human platelets (AA-induced MDA formation); test: AA-induced malondialdehyde (MDA) formation; type: cell-based; details: Platelet, read-out: IC50, AA-induced MDA formation
# Method: as §2, §3
structure (smiles),measurement,setting,value
"CC(C)(Oc1ccc(Cl)cc1)C(=O)O [Clofibric acid 1, clofibric acid]",inhibition of collagen-induced secretion of [14C]-serotonin (in words),[1],in a concentration-dependent manner at equivalent doses
same,inhibition of (secondary wave of) ADP-induced aggregation (in words),[2],concentration-dependent inhibition
same,"rank order of potency, aggregation and serotonin secretory responses to ADP and AA","[2]; ADP and AA, aggregation and serotonin secretion together","benzopyranone analogue>2,3-dihydrobenzofuran analog>clofibric acid"
same,IC50,"[2]; Homo sapiens, Platelet, inhibitor 1 min before ADP (1-5 uM), secondary aggregation only, mean ± S.E.M., n = 3-9 donors",0.98 ± 0.245 mM
same,"rank order of inhibitory potency, thrombin-induced AA release",[3],IX>>X=1; also recorded: IX>1=X
same,IC50,"[3]; Homo sapiens, Platelet, read-out: IC50, thrombin-induced [3H]-AA release",3.31 mM
same,inhibition of U46619-induced aggregation/responses (in words),[4],Unlike clofibric acid
same,IC50,"[4]; Homo sapiens, Platelet, inhibitor 1 min before U46619 (0.3 uM), aspirin 1 mM added, mean ± S.E.M., n = 3-9 donors",4 mM
same,"rank order of inhibitory potency, AA-induced serotonin secretion",[5]; AA-induced serotonin secretion,IX>X>1
same,IC50,"[5]; Homo sapiens, Platelet, inhibitor 1 min before AA (0.2-1 mM), mean ± S.E.M., n = 3-9 donors",3.43 mM
same,inhibition of ADP-induced human platelet activation (in words),[6],inhibits collagen- and adenosin diphosphate (ADP)-induced human platelet activation
same,inhibition of collagen-induced human platelet aggregation/activation (in words),[7],inhibits collagen- and adenosin diphosphate (ADP)-induced human platelet activation
same,inhibition of collagen-induced human platelet aggregation/activation (in words),[7]; listed as 1,inhibit collagen-inducedhuman platelet aggregation
same,IC50,[8],3.07 mM
same,IC50,[9],> 2.96 mM

# “Also recorded” adds a separate entry of the source. Where two headings read alike, the source gives them in different places.
